# Patent publication US20140363818A1, “EGFR and PAR2 Regulation of Intestinal Permeability” (UNIVERSITY OF MARYLAND, BALTIMORE, priority 2009, published 2014)
# “Also recorded” adds a separate entry of the source.
# Target: T1, EGFR (Homo sapiens, UniProt P00533)
# T1 construct: serum-starved, high EGFR-expressing Caco-2 cells; endogenous in cells; host or cells: Caco-2
# Assay: EGFR phosphorylation in serum-starved Caco-2 cells (immunoprecipitation / Western blot)
# Type: cell-based
# Conditions: AG1478 5 μM, 2 h pre-incubation, Y1068, FIG. 5B
# Description: PAR2 expression in Caco-2 cells was silenced using 2 different PAR2 siRNAs [HSS103471 and HSS103473 (50 nM each); Invitrogen].
# The effect of zonulin on ex vivo and in vivo intestinal permeability was performed as described (8, 14) and reported above. To determine whether zonulin can activate EGFR, increasing concentrations of either zonulin or two-chain mature HP2 were added for increasing exposure times to serum-starved, high EGFR-expressing Caco-2 cells. The cells were lysed and processed for WB with anti-phospho EGFR (Y1068) Ab (Cell Signaling Technol. Inc.) as reported (40).
# To determine whether zonulin can activate EGFR, increasing concentrations of baculovirus-derived, recombinant zonulin were added to Caco-2 intestinal epithelial cells. The cells were lysed, immunoprecipitated with anti-EGFR Ab, and processed for phosphotyrosine immunoblotting (PY-Plus).
compound,measurement,value
"COc1cc2ncnc(Nc3cccc(Cl)c3)c2cc1OC [AG1478, reference compound]",effect on zonulin-induced EGFR phosphorylation,prevented; also recorded: completely abolished
